This experiment deals with glioma. Conditions: patient No. 7, WHO grade IV; brain PET/CT.

Turning to ^18F-FDG, the “T/NTmax (maximum target to non-target ratio)” value is reported as 1.36.

For the origin of these results see article PMC4440444 (Theranostics, 2015).
